The record followed here is patent US11453711B2, “Fusion proteins of GLP-1 and GDF15 and conjugates thereof” (BEIJING QL BIOPHARMACEUTICAL CO., LTD., priority 2019, dated 2022).

This data set can be described thus: Pharmacokinetic measurement in mouse, single sc dose 30 nmol/kg, plasma ELISA. As to conditions: single sc dose 30 nmol/kg. (In general: ELISA stands for enzyme-linked immunosorbent assay.)

In the case of Semaglutide [reference compound], the “AUC0-24 h” value came out at 0.6147 µM·h.
